Molecular target: T1, cytochrome bcc complex (Mycolicibacterium smegmatis, UniProt A0R052)
T1 construct: gene MSMEG_4263; native complex in inverted membrane vesicles
Experiment: NADH-driven oxygen consumption of inverted membrane vesicles (Clark electrode); effect lost in bcc-KO and […] maximal in bd-KO
Type: biochemical

`CCc1nc2ccc(Cl)cn2c1C(=O)NCc1ccc(N2CCC(c3ccc(OC(F)(F)F)cc3)CC2)cc1` [Q203] was tested, and the IC50 was roughly 20 nM.

From PMC5805707, “The anti-mycobacterial activity of the cytochrome bcc inhibitor Q203 can be enhanced by small-molecule inhibition of cytochrome bd” (Scientific Reports, 2018)
